The assay deals with T1, Phospholipase A2, membrane associated (Homo sapiens) (UniProt P14555).
T1 sequence (whole entry): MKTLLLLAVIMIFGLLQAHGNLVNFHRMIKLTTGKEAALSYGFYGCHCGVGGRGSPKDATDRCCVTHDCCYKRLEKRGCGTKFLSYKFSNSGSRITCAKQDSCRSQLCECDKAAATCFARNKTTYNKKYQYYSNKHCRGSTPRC
The assay can be described thus: Inhibitory activity against human synovial fluid phospholipase A2 (HSF-PLA2). Set-up: concentration or dose not given beside the values. The following applies: concentration not given here.

In ChEMBL document CHEMBL1128584, “Prediction of drug binding affinities by comparative binding energy analysis” (J Med Chem, 1995) one finds inhibition data, which are given here for one compound.

Each structure is given as a SMILES string.

The compound `CCCCCCCCCCS(=O)(=O)NC(CCCCCC)COP(=O)(O)CC` (stereo unspecified) registered an inhibition of 33%.

As usually defined, the inhibition is the change of the read-out against control, counted positive when it falls.
